In patent publication US5032577A, “Peptidylaminodiols” (Abbott Laboratories, priority 1987, dated 1991):
Read-outs that look alike come from different tables or passages of the source.

By UniProt entry, the sequences of proteins in these tests, tags left out. Residues count along the entry.
UniProt P00797, 67-406: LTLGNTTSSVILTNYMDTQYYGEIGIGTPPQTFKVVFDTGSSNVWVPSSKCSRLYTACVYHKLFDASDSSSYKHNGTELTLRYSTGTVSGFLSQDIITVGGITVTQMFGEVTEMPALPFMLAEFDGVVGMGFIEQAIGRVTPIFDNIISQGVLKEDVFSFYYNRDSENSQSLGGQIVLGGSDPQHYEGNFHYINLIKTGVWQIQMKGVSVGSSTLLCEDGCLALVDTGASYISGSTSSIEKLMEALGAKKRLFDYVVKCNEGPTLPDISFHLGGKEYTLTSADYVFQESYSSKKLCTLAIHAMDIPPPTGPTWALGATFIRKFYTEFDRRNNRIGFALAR

Target: T1, human renal renin (Homo sapiens, UniProt P00797)
T1 construct: human renal renin, free from acid proteolytic activity; from tissue
Assay: Inhibition of human renal renin in vitro; angiotensin I formed measured by radioimmunoassay
Assay type: biochemical

SMILES: CC(=O)N[C@@H](Cc1ccccc1)C(=O)N[C@@H](Cc1c[nH]cn1)C(=O)N[C@@H](CC1CCCCC1)[C@@H](O)[C@@H](O)CC(C)C [Example 30, Ac-Phe-His Amide of 2(S)-Amino-1-cyclohexyl-3(R),4(S)-dihydroxy-6-methylheptane]
- IC50 (human renal renin free from acid proteolytic activity, renin substrate human angiotensinogen, 37° C., pH 6.0): 0.75 nM

SMILES: CC(C)C[C@H](O)[C@H](O)[C@H](CC1CCCCC1)NC(=O)[C@H](Cc1c[nH]cn1)NC(=O)[C@@H](Cc1ccccc1)NC(=O)N1CCOCC1 [Example 174]
- IC50: 12 nM
